Results on one substance are retold here after patent US7740882B2, “Enhanced oral and transcompartmental delivery of therapeutic or diagnostic agents” (priority 2001, dated 2010).

One data set relates to Caco-2 cell monolayers. The data set can be described thus: Absorptive (AP to BL) transport across Caco-2 cell monolayers. Background: Passage across Caco-2 layers is used to estimate intestinal permeability.
For data set [1] the following is noted: 10% fetal calf serum.
Another data set relates to CHO/pSPORT cells. As to the kind of experiment: Non-specific uptake in vector-transfected control CHO/pSPORT cells. On the procedure:
CHO Cell Uptake Studies CHO cells transiently transfected with hSMVT (CHO/hSMVT) were washed twice with 25 mM uptake buffer, containing 25 mM Hepes/Tris pH 7.5, 140 mM NaCl, 5.4 mM KCl, 1.8 CaCl2, 0.8 mM MgSO4 and 5 mM glucose, approximately 48 hours post-transfection. Subsequently, the cells were incubated with the permeant at 37° C. for 10 minutes. Uptake was stopped by washing the cells thrice with ice-cold buffer. Non-specific uptake was measured in parallel experiments with the control pSPORT vector-transfected CHO cells. Finally, the cells were solubilized by 0.1% v/v Triton X-100, and 0.6 ml was used for scintillation counting. […] Bovine serum albumin was used as the standard.
CHO Cell Uptake Studies CHO cells transiently transfected with hSMVT were washed twice with 25 mM uptake buffer, containing 25 mM Hepes/Tris pH 7.5, 140 mM NaCl, 5.4 mM KCl, 1.8 CaCl2, 0.8 mM MgSO4 and 5 mM glucose. […] Non-specific uptake was measured in parallel experiments with the control pSPORT vector-transfected CHO cells. […] From the remaining volume, 10 μl of solution was taken from each well and protein concentration was determined using the Bio-Rad reagent according to the manufacturer's instructions. […]
CHO Cell Uptake Studies. […] Non-specific uptake was measured in parallel experiments with the control pSPORT vector-transfected CHO cells. […]

In the case of “N-acetyl-D-Lys:(ε-biotin)-D-Arg-D-Arg-D-Arg-D-Gln-D-Arg-D-Arg-D-Lys-D-Lys-D-Arg-NH2 [RI-K(biotin)-Tat9]”, in the data set on Caco-2 cell monolayers (Caco-2), the “Pc, carrier-mediated component” value came to 3.22 ×10⁻⁶ cm/s and the “Pm, passive permeability” value came out at 0.57 ×10⁻⁶ cm/s. Moreover, in the data set on Caco-2 cell monolayers (Caco-2, at 1 μM), the “increase in absorptive permeability over RI-K-Tat9” value was 3.2 fold. In data set [1], the resistance to proteolysis entry was “highly resistant to proteolysis”. Moreover, the “uptake in CHO/pSPORT cells” value with CHO/pSPORT cells is reported as approximately 33.83 pmol/mg protein.
